# Antibody variant affinities, Ab-91 heavy chain, assay 2

All variants were tested on one target, the spike HR2 peptide PDVDLGDISGINAS (SARS-CoV-2).

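The starting antibody came from a phage panning campaign against this peptide. In library AAYL51, one, two or three CDR residues were substituted; doubles and triples were drawn at random. In AlphaSeq, yeast of one mating type display the scFv and yeast of the other type display the target. The frequency of each diploid, read from paired DNA barcodes, reflects how well the two displayed proteins bind. Each replicate has its own calibration line, from reference interactions of the BCL2 family. The assay was run in three technical replicates.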

The variants keep the light chain, the linker and the frameworks of Ab-91 (scFv order VL, the linker GGGGSGGGGSGGGGS, VH).
VL: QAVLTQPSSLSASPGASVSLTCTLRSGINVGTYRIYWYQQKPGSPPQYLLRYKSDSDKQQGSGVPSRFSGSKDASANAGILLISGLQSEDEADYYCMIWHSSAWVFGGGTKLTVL
VH: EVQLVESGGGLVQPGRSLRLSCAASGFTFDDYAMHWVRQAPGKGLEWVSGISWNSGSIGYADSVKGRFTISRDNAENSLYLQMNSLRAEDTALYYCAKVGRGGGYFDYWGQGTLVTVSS

The whole VH of each variant is written out.
Values are log10 of the apparent Kd in nM; lower means stronger binding.
The mean shown is taken over the replicates in which the pair was detected.
"nd" means that the variant was in the library but no mating with the target was seen in any replicate; the authors take this as a sign of poor binding, and no number exists.
In this assay the parent's reference entry averaged 1.86; its copy inside this library read 0.88.
Empty control strains, which show no peptide, gave a signal in 21% of pairings with library AAYL51; the median was 4.54 and 95% of these signals were weaker than 3.26. No background was subtracted.

With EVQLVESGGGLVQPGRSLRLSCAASGFTHDDYAMHWVRQAPGKGLEWVSGISWNSGSIGFADSVKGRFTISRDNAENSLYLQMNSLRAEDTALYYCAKVGRGGGYFDYWGQGTLVTVSS the result was 3.92 (1 of 3 replicates).
With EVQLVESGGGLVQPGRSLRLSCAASGFTFDYYAMHWVRQAPGKGLEWVSGISWNSGSIGYADSVWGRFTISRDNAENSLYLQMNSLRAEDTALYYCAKVGRGGGFFDYWGQGTLVTVSS the result was 1.57 (3 of 3 replicates).
With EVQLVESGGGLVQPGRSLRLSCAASGFTFDWYAMHWVRQAPGKGLEWVSGISWNSGSIGYADSVRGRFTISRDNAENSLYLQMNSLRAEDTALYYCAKVGRGGTYFDYWGQGTLVTVSS the result was 3.20 (3 of 3 replicates).
With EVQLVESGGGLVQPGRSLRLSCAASGFTFDDPAMHWVRQAPGKGLEWVSGISWNSGSHGYADSVKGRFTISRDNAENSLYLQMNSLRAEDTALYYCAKVGRGRGYFDYWGQGTLVTVSS the result was 3.15 (1 of 3 replicates).
With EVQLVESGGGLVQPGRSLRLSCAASGFTFDDCAMHWVRQAPGKGLEWVSQISWNSGSIGYADSVKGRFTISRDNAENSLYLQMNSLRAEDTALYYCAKVGYGGGYFDYWGQGTLVTVSS the result was 5.38 (1 of 3 replicates).
With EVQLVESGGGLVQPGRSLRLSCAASGFTVDDYAPHWVRQAPGKGLEWVSGISWNSGSIGYAESVKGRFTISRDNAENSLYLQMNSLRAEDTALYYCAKVGRGGGYFDYWGQGTLVTVSS the result was 3.68 (1 of 3 replicates).
With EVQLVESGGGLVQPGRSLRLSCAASGFTFDDYAQHWVRQAPGKGLEWVSGISWNSGSIGYADSVKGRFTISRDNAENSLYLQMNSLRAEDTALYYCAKIGREGGYFDYWGQGTLVTVSS the result was nd (0 of 3 replicates).

Further variants, results first:

6.10 (1 of 3 replicates) for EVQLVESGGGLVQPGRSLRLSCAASGFTFDDYAMHWVRQAPGKGLEWVSGISWNSGVIGYADSVKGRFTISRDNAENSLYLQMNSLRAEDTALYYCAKVGPGGGYFDYWGQGTLVTVSS.
4.19 (2 of 3 replicates) for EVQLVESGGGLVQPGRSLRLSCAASGNTFADYAMYWVRQAPGKGLEWVSGISWNSGSIGYADSVKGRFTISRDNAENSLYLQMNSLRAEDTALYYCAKVGRGGGYFDYWGQGTLVTVSS.
4.03 (1 of 3 replicates) for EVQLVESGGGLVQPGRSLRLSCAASGFTFDDGAMHWVRQAPGKGLEWVSGISWNSGSIGYADSVKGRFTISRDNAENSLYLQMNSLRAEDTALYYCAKVGRGGGYTDYWGQGTLVTVSS.
nd (0 of 3 replicates) for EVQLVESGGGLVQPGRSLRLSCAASGFTQDDYNRHWVRQAPGKGLEWVSGISWNSGSIGYADSVKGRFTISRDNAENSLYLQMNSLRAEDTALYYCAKVGRGGGYFDYWGQGTLVTVSS.
4.82 (3 of 3 replicates) for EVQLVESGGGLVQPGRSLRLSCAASGFTFDDYAMSWVRQAPGKGLEWVSGISINSGSIGYADSVKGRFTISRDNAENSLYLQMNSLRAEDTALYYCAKVGRGGGYFDYWGQGTLVTVSS.
2.09 (3 of 3 replicates) for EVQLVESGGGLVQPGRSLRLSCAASGFTFWDYAMHWVRQAPGKGLEWVSGISWNSGSIGYADSVKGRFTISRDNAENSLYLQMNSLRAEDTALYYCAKVGRGAGYFVYWGQGTLVTVSS.
nd (0 of 3 replicates) for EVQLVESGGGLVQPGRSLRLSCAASGFTFDGGYMHWVRQAPGKGLEWVSGISWNSGSIGYADSVKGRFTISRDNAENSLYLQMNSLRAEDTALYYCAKVGRGGGYFDYWGQGTLVTVSS.
nd (0 of 3 replicates) for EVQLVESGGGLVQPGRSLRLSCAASGLTWDDYAMHWVRQAPGKGLEWVSGISWNSGSIGYAASVKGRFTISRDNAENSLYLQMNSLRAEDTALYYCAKVGRGGGYFDYWGQGTLVTVSS.

The measurements come from Engelhart et al. 2022 (doi:10.1038/s41597-022-01779-4) through the FLAb antibody collection.